This is an account of results in US10227344B2, “CK2 inhibitors, compositions and methods thereof” (Polaris Pharmaceuticals, Inc., priority 2016, dated 2019).

Common to all, as to assay type: cell-based
Experiment [1] has as its system SKOV-3. As to the kind of experiment: Cancer cell panel, cell viability (resazurin): Ovarian, SKOV-3. Particulars: SKOV-3 (Ovarian), 72 hours; labelled drug combined with Example 3. On the procedure: (§1) Cells were plated in 96-well plates and treated for 72 hours with a serially diluted CK2 inhibitor or anti-cancer drug or their combination. The suspension cell lines were treated right after plating, while the adherent cells were allowed to attach overnight prior to the start of the treatment.
(§2) Cell viability was determined by adding resazurin to cell cultures and measuring fluorescence with a plate reader. Relative cell viability was calculated by dividing the cell viability signal from a test sample by that of a non-treated control. Reduction in relative cell viability after treatment with a combination of the CK2 inhibitor and anti-cancer drug was compared to that observed after treatment with each agent by itself (CK2 inhibitor or the anti-cancer drug). Bliss Independence and Highest Single Agent models were used to determine if there is synergy, additivity or antagonism between the CK2 inhibitor and an anti-cancer drug.

The subject of experiment [2] is A2780. In words: Cancer cell panel, cell viability (resazurin): Ovarian, A2780. Particulars: 72 hours, labelled drug combined with Example 3. The method, then: as §1, §2
A general note: Resazurin is reduced to fluorescent resorufin, in cell work by metabolically active cells.

The subject of experiment [3] is Caov-3. In words: Cancer cell panel, cell viability (resazurin): Ovarian, Caov-3. Particulars: Caov-3 (Ovarian), 72 hours; labelled drug combined with Example 3. The method, then:
as §1, §2

The test system of experiment [4] is BxPC3. In words: Cancer cell panel, cell viability (resazurin): Pancreatic, BxPC3. The following applies: 72 hours, labelled drug combined with Example 3. On the procedure: as §1, §2
Experiment [5] relates to DLD-1. In words: Cancer cell panel, cell viability (resazurin): Colon, DLD-1. The following applies: DLD-1 (Colon), 72 hours; labelled drug combined with Example 3. The method, then:
as §1, §2

The subject of experiment [6] is H1299. In words: Cancer cell panel, cell viability (resazurin): NSCLC, H1299. The following applies: 72 hours, labelled drug combined with Example 3. The method, then: as §1, §2
Experiment [7] concerns MDA-MB-231. In words: Cancer cell panel, cell viability (resazurin): Breast, MDA-MB-231. Particulars: MDA-MB-231 (Breast), 72 hours; labelled drug combined with Example 3. The method, then:
as §1, §2

Experiment [8] concerns Caki-1. In words: Cancer cell panel, cell viability (resazurin): Renal, Caki-1. Particulars: Caki-1 (Renal), 72 hours; labelled drug combined with Example 3. On the procedure:
as §1, §2

In experiment [9] the test system is EOL-1. As to the kind of experiment: Cancer cell panel, cell viability (resazurin): Leukemia, EOL-1. Particulars: EOL-1 (Leukemia), 72 hours; labelled drug combined with Example 3. On the procedure: as §1, §2

On to `Nc1nc(F)nc2c1ncn2[C@@H]1O[C@H](CO)[C@@H](O)[C@@H]1O` [Fludarabine, fludarabine], for which the “synergy, additivity or antagonism of the combination of Example 3 with the anti-cancer drug” value in experiment [1] is “+ + (Slight synergy relative to each agent alone (CI = 0.75-0.9 by Bliss Independence Model))”; in [2] it was “+ + (Slight synergy relative to each agent alone (CI = 0.75-0.9 by Bliss Independence Model))”; in [3] it was “+ (Additive relative to each agent alone (CI = 0.9-1 by Bliss Independence Model and <0.9 by Highest Single Agent Model))”; in experiment [4] it was “+ (Additive relative to each agent alone (CI = 0.9-1 by Bliss Independence Model and <0.9 by Highest Single Agent Model))”; in experiment [5] it was “+ (Additive relative to each agent alone (CI = 0.9-1 by Bliss Independence Model and <0.9 by Highest Single Agent Model))”; in experiment [6], “+ (Additive relative to each agent alone (CI = 0.9-1 by Bliss Independence Model and <0.9 by Highest Single Agent Model))”. For the same compound, the “synergy, additivity or antagonism of the combination of Example 3 with the anti-cancer drug” value in experiment [7] was “+ + (Slight synergy relative to each agent alone (CI = 0.75-0.9 by Bliss Independence Model))”; in [8], “+ (Additive relative to each agent alone (CI = 0.9-1 by Bliss Independence Model and <0.9 by Highest Single Agent Model))”; in experiment [9], “+ (Additive relative to each agent alone (CI = 0.9-1 by Bliss Independence Model and <0.9 by Highest Single Agent Model))”.
